target: recombinant human TGM2 (Homo sapiens (Human), UniProt P21980); experiment: Assay for quantification of TGM2 transglutaminase inhibitory activity (fluorescence, H-Abz-APE(CAD-DNP)QEA-OH substrate); details: read-out: IC50 values for inhibition of TGM2; recombinant human TGM2 25 μg/ml; substrate 50 μM, glycine methyl ester 5 mM; 15 min preincubation at room temperature; pH 7.5
Protocol: a) Assay Method for the Quantification of TGM2 Transglutaminase Inhibitory Activity
The activity of the compounds for inhibition of TGM2 was determined with recombinant human TGM2 (Zedira GmbH, Darmstadt, Germany, Product Nr. T002) and the peptidic compound H-Abz-APE(CAD-DNP)QEA-OH as substrate (Zedira GmbH, Darmstadt, Germany, Product Nr. A102; CAD-DNP is N^ω-2,4-dinitrophenyl-cadaverine, i.e. the carboxylic acid group in the side chain of the respective glutamyl moiety is amidated with the primary amino group of N-(2,4-dinitrophenyl)pentane-1,5-diamine; cf. also K. Oertel et al., Anal. Biochem. 2007, 367: 152-158). For this purpose, 2 μl of a solution of different concentrations of the test compound in dimethyl sulfoxide was added to 28 μl of buffer (50 mM TRIS, 100 mM NaCl, 10 mM CaCl2, pH 7.5) and 10 μl of a TGM2 solution to give a TMG2 test concentration of 25 μg/ml, and the mixture incubated for 15 minutes at room temperature in a 96 half-well microtiter plate. The enzyme reaction was started by the addition of 10 μl of substrate solution containing H-Abz-APE(CAD-DNP)QEA-OH and glycine methyl ester hydrochloride in buffer to give test concentrations of H-Abz-APE(CAD-DNP)QEA-OH of 50 μM and of glycine methyl ester hydrochloride of 5 mM. The time course of the reaction was monitored with excitation at 318 nm and measurement at emission wavelength 418 nm in a microtiter plate reader (SpectraMax M5, Molecular Devices) over 15 minutes. Rates were calculated from the linear part of the curve (generally between 5 and 10 minutes). IC50 values were calculated from the means (duplicates) of a dilution series of the compound, using the software Softmax Pro (Version 4.8, Molecular Devices).

By UniProt entry, the sequences of proteins in these tests, tags left out.
UniProt P21980, whole entry: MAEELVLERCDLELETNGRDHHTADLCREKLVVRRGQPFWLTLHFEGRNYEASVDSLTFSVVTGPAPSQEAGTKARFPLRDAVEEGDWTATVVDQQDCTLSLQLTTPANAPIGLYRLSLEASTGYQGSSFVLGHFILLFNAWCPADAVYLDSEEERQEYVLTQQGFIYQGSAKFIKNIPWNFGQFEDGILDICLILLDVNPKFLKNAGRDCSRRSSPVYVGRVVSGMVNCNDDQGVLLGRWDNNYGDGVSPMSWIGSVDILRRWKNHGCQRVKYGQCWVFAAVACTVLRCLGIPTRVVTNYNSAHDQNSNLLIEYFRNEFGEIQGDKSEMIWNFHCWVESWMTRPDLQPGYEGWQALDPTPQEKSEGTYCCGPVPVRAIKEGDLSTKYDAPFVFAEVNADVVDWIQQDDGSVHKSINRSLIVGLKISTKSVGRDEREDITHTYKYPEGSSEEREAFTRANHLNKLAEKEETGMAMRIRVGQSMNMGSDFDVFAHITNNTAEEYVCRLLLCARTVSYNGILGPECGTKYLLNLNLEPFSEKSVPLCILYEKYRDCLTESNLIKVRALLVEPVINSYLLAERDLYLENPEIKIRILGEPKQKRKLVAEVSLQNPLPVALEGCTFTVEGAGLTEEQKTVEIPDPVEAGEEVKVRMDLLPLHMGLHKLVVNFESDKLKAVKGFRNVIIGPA

Row | Structure (SMILES) | IC50 [nM]
1 | NS(=O)(=O)N1CCN(C(=O)n2sc3ncccc3c2=O)CC1 | 200
2 | CS(=O)(=O)N1CCN(C(=O)n2sc3ncccc3c2=O)CC1 | 250
3 | O=C(NC[C@H]1OC(O)[C@H](O)[C@@H](O)[C@H]1O)n1sc2ncccc2c1=O (stereo partly drawn) | 800

Reference: patent US9260454B2, “Isothiazolopyridine-2-carboxamides and their use as pharmaceuticals” (Sanofi, priority 2011, dated 2016)
